Earlier results on one molecule are cited in patent US8765768B2, “Heterocyclic compounds and their uses” (Amgen Inc., priority 2010, dated 2014).

By UniProt entry, the sequences of proteins in these tests, tags left out. Where a name states a change or a piece, a line headed by the entry shows the natural chain unless it says otherwise.
UniProt P42338: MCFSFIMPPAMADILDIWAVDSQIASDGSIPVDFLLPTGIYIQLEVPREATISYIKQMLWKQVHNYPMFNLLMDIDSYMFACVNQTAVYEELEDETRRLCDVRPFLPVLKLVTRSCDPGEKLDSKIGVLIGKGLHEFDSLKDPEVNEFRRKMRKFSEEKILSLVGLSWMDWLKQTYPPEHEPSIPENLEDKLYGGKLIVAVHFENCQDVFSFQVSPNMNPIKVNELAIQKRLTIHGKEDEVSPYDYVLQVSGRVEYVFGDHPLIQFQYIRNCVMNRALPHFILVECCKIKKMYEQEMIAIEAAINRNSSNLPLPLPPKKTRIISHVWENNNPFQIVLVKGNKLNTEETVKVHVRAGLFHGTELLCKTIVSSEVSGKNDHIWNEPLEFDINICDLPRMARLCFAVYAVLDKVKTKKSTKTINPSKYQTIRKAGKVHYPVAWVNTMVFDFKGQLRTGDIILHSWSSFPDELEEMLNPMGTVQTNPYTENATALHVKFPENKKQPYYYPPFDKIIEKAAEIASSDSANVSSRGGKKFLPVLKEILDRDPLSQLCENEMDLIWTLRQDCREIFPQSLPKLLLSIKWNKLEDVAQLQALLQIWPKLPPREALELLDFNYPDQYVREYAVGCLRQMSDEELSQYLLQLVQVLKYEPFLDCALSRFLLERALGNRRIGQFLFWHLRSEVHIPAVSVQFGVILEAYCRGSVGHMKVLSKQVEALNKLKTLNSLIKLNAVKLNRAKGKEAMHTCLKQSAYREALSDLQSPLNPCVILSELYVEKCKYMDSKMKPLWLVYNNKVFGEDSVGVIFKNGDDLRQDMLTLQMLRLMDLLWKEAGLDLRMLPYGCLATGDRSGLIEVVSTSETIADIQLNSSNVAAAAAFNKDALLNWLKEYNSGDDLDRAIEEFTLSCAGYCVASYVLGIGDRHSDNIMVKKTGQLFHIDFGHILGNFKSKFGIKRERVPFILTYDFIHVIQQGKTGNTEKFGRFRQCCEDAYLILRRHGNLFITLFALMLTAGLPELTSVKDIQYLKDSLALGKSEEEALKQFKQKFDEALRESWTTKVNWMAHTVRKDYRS

This data set has as its target p110β (Homo sapiens, UniProt P42338). To be noted: on beta; quantity type not given; read-out: potency on beta.

For `Cc1cc(C(C)Nc2ccccc2)c2nc(N3CCOCC3)cc(=O)n2c1` (stereo not shown) [TGX-221], the IC50 was 7 nM.
